This passage reports IC50 results from ChEMBL document CHEMBL4765268 (Eur J Med Chem, 2020).

Protein sequences, listed by entry. Tags and fused reporters are not part of them. Lines headed by an entry give the natural chain unless they say otherwise; changes in a name come on top.
UniProt P51452: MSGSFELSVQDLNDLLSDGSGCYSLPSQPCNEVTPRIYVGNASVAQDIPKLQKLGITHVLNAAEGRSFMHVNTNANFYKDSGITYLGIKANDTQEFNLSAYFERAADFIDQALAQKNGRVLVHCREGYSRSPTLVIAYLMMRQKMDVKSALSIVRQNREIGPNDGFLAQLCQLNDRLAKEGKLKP
UniProt Q9Y2R2, whole entry: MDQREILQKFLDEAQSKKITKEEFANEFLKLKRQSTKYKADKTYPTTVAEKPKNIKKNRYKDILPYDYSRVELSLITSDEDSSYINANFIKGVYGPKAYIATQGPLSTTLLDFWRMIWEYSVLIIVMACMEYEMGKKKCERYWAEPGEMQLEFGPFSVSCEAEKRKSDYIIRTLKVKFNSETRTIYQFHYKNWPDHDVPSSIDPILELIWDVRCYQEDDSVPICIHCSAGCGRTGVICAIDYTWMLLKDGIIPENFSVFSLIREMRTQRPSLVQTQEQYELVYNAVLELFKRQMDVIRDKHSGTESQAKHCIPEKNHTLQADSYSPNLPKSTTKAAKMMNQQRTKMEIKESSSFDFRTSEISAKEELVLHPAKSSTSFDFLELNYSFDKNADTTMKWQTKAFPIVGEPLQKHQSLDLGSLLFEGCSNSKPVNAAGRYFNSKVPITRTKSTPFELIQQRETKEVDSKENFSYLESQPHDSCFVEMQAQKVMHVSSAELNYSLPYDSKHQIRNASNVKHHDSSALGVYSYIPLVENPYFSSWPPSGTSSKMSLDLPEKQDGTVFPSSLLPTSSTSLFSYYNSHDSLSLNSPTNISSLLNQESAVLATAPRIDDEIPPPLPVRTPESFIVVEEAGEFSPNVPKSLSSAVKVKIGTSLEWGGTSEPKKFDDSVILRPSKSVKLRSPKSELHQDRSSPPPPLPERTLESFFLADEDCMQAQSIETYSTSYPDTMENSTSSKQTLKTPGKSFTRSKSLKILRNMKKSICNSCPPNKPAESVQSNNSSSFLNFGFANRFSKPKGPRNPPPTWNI

The target in test [1] is Dual specificity protein phosphatase 3 (Homo sapiens, UniProt P51452). As to the kind of experiment: Inhibition of VHR (unknown origin).
Test [2] has as its target Tyrosine-protein phosphatase non-receptor type 22 (Homo sapiens, UniProt Q9Y2R2). The test can be described thus: Inhibition of LYP (unknown origin).
Test [3] addresses T1, Tyrosine-protein phosphatase non-receptor type 7 (Homo sapiens, UniProt P35236).
T1 sequence (P35236 whole entry): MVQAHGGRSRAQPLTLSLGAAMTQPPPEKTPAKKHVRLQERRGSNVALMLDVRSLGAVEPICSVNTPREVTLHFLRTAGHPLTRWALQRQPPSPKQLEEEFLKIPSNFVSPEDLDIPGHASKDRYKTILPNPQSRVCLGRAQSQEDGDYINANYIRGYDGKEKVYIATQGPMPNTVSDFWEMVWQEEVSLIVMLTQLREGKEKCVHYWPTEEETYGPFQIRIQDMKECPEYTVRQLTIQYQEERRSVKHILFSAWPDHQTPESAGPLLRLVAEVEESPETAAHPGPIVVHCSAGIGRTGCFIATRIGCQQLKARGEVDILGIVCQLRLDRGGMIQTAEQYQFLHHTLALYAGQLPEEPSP
The test can be described thus: Inhibition of HEPTP (unknown origin).

In test [4] the target is T2, Receptor-type tyrosine-protein phosphatase O (Homo sapiens, UniProt Q16827).
T2 sequence (Q16827 whole entry): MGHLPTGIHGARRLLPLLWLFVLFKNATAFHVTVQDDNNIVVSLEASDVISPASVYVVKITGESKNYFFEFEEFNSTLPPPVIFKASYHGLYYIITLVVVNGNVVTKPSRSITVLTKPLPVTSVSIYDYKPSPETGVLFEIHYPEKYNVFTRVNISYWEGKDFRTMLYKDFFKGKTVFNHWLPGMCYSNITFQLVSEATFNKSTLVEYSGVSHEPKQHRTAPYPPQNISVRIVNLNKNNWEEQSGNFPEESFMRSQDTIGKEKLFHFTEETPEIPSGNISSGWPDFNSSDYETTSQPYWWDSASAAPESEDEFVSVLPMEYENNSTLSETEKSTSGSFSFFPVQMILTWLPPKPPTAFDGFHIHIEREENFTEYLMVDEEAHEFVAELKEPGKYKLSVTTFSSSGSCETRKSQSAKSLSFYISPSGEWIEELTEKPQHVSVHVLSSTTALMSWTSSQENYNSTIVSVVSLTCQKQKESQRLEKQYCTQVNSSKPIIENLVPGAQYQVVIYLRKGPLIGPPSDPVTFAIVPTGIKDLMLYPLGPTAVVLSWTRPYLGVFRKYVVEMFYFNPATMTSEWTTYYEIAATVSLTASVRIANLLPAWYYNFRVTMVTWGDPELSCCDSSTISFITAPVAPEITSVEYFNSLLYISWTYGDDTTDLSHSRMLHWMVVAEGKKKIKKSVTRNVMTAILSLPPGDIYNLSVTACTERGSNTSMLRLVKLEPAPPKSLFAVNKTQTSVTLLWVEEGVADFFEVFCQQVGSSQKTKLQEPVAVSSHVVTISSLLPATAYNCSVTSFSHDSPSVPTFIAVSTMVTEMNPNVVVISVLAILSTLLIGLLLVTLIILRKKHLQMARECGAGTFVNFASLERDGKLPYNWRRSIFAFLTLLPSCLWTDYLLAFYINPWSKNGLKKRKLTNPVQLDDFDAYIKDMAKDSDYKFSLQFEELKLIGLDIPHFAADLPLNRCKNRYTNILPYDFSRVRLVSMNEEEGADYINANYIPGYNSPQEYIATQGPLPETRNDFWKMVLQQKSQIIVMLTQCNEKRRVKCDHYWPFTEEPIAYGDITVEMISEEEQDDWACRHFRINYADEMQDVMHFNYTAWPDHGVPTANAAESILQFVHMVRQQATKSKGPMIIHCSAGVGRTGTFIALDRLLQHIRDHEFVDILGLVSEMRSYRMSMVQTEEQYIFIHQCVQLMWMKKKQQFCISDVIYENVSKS
As to the kind of experiment: Inhibition of GLEEP (unknown origin).

The target in test [5] is T3, Tyrosine-protein phosphatase non-receptor type 1 (Homo sapiens, UniProt P18031).
T3 sequence (P18031 whole entry): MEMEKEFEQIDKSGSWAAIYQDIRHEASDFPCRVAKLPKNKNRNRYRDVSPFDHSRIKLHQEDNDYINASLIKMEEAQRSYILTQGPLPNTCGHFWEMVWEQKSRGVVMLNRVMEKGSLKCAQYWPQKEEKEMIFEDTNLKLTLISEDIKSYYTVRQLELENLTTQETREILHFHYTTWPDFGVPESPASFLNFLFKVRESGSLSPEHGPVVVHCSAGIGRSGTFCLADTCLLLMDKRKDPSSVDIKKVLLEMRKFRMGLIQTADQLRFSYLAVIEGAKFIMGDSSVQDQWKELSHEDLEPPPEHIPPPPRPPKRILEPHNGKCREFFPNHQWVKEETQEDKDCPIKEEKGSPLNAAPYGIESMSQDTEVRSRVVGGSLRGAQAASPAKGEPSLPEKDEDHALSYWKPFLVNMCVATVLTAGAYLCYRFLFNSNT
The test can be described thus: Inhibition of PTP1B (unknown origin).

As to `O=C(O)c1cccc2c1NC(c1ccc(F)cc1)C1CC(Sc3ccccc3[N+](=O)[O-])C(Cl)C21` (centres undefined), the concentration for half-maximal inhibition (IC50) in test [1] stood at 26 µM; in test [2] it was 14.5 µM; in test [3], 20.1 µM; in test [4] it was 41.9 µM; in test [5], 67.6 µM.
As for `O=C(O)c1cccc2c1NC(c1cccc(Br)c1)C1CC(Sc3ccccc3[N+](=O)[O-])C(Cl)C21` (centres undefined), the IC50 in test [1] amounted to 56.9 µM; in test [3], 48.2 µM; in test [4], 18.3 µM; in test [5] it was 13.3 µM.

As a reminder, the IC50 is the concentration that inhibits the measured activity by half. Read a low IC50 as higher potency.
